Where two headings read alike, the source gives them in different places.
Key:
hKLK5 [1] = target: T1, hKLK5 (Homo sapiens, UniProt Q9Y337); assay: Ki [nM]
Description: Table printed on a drawing sheet, Figure 3a (continued)
(§1) Head of the field: Ki [nM]
(§2) (a) Sequences found after selections against hKLK5. (b) Sequences found after selections against hKLK7.
First copying reader's note: Continued from the sheet before; the linker used for cyclization is drawn above the table as a structure (Br-CH2-C(=O)-CH2-Br), and each residue of the 18-residue sequence stands in its own column.

The chains behind the UniProt entries cited, without tags or fusion partners. Residues count along the entry.
UniProt Q9Y337, 23-293 limits assumed: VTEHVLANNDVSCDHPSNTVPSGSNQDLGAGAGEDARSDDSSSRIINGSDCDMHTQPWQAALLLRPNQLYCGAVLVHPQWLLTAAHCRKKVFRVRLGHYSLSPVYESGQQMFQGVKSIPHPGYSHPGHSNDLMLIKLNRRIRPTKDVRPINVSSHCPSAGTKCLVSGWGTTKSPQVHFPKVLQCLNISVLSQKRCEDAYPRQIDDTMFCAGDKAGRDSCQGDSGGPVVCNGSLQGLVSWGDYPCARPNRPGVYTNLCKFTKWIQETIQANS
UniProt P49862, 30-253 limits assumed: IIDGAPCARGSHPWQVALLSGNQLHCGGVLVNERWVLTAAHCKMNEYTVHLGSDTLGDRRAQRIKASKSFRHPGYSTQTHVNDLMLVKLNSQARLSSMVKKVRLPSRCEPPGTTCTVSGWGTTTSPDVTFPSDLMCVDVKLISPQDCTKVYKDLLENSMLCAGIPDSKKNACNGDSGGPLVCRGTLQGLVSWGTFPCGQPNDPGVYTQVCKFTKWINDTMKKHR

hKLK7 = hKLK7 (Homo sapiens, UniProt P49862); assay: Ki [nM]
Description: Table printed on a drawing sheet, Figure 3b (continued)
as §1, §2
First copying reader's note: Continued from the sheet before; the sequences are printed in three consensus groups (rows 2-6, 7-15, 16-19) under a drawn Br-CH2-C(=O)-CH2-Br linker, and several residues on dark shading cannot be read in the scan.`
Where the first naming reader finds the target: description_of_the_figure: (b) Sequences found after selections against hKLK7.

hKLK5 [2] = target: T1, hKLK5

Substance “M C S R Q W D P S L C C P Q R T C P [compound 006]” has a Ki (hKLK5 [1]) of 24 nM.
“G C T R Q W P C D S V P G S C T C V [compound 004]” showed a Ki (hKLK5 [1]) of 2.7 nM.
Work on “Q C ? I T Y Q F C T H D R Y G C C S [compound 010]” yielded a Ki (hKLK7) of 96 nM.
For “A C T R E Y N P Q C A N P Q C L C H [compound 005]”, the Ki (hKLK5 [1]) was 28 nM.
For “G C T R Q V C Q Q T P A C P S A C N [compound 001]”, the Ki (hKLK5 [2]) was 7 nM.
In the case of “F C L W P W C Q P P E A C P S Q C E [compound 012]”, the Ki (hKLK7) is reported as > 1000 nM.
